In paper PMC5612113, “Dimerization of the transmembrane domain of amyloid precursor protein is determined by residues around the γ-secretase cleavage sites” (The Journal of Biological Chemistry, 2017):

Target: the molecule itself
Experiment: FRET or BRET; three-hybrid BRET: C99-Rlu co-expressed with C99-YFP-N and C99-YFP-C; a signal needs all three hybrid proteins in close proximity

B1: C99, 99-amino acid C-terminal fragment of the amyloid precursor protein (domain or fragment)
chain: not shown
modifications: biotin on the Avi tag (pull-down bait copy, in-cell biotinylation by BirA)
notes: C99, the 99-amino acid C-terminal fragment of human amyloid precursor protein left by β-secretase cleavage; the assay tells which fusions met; also called WT C99; C99–TEV; source: PS1/PS2-deleted HTL cells (HEK293-derived), transfected; in live cells (Tango, BRET) or in lysate (pull-down); not shown: TEV protease (on one copy, Tango), C-terminal, kept; TEV site-rTA (on the other copy, Tango and …)
stoichiometry N: 2
